Experimental data as given in article PMC7615677, “DNDI-6174, a preclinical candidate for visceral leishmaniasis that targets the cytochrome bc1 complex” (Science translational medicine, 2023).

Assays:
[1] = system: L. donovani promastigote cultures; assay type: cell-based, Leishmania donovani
Protocol: The clonal L. donovani cell line LdBOB (derived from MHOM/SD/62/1S-CL2D) was grown as promastigotes at 28°C and as axenic amastigotes at 37°C, as described previously ([25]).
To examine the effects of test compounds on growth in 96-well plates, promastigote or axenic amastigote cultures seeded at 5 × 10^4 parasites mL^–1 were incubated in the presence of 2-fold serial dilutions of test compounds for 72 h. Following incubation, 50 μM resazurin was added to each well and fluorescence (excitation of 528 nm and emission of 590 nm) measured after a further 3 h incubation.
Starting at sublethal concentrations, drug concentrations in 5 independent cultures were increased in a stepwise manner, usually by 2-fold. […] Five clones (Res 1–5) were selected for further biological study.

Caco-2 permeability = assay type: in vitro ADME; conditions: human, Caco-2, Caco-2
Protocol: The ionization constant (pKa), octanol-pH 7.4 buffer partition coefficient (Log D7.4), solubility in biorelevant buffers (FaSSIF-V2, FeSSIF-V2, FaSSGF and pH 7.4 phosphate buffered saline (PBS)) and Caco-2 permeability were determined according to previously published methods ([10]).

[2] = Blood to plasma partitioning; assay type: in vitro ADME; conditions: for blood plasma ratio at 1000 ng/mL: whole blood, pH 7.4
Protocol: Whole blood to plasma partitioning (B:P) was determined in human, rat and mouse whole blood and blood stability was assessed in human and rat whole blood. Fresh dog blood was not available,e so the average of the other three species was used as an estimate. For rat and human, aliquots of whole blood were spiked with DNDI-6174 to a concentration of 1000 ng/mL and maintained at 37°C under a 5% CO2 atmosphere to maintain the pH at 7.4 ± 0.1. At 30 and 120 min, eight aliquots of the whole blood were transferred to fresh microcentrifuge tubes and four were used for stability assessment and to determine the whole blood concentration, with the remaining four being centrifuged for separation of plasma to determine the blood to plasma ratio. For mouse, blood was collected from mice at 15 min and 1 h after an IV dose of 3 mg/kg into tubes containing heparin, samples were gently mixed before removing aliquots of whole blood and centrifugation of the remaining blood for the collection of plasma. For analysis, blood and plasma samples were matrix matched by mixing the sample with an equal volume of the opposite blank matrix (i.e. blood samples were mixed with blank plasma and plasma samples were mixed with blank blood) and then quantitated by LCMS against a calibration curve prepared in a 1:1 mixture of blank blood and plasma.

[3] = Compartmental PK modelling and repeat-dose simulation; parameters: species or system hamsters
Protocol: To support pharmacokinetic/pharmacodynamic (PKPD) analysis, data in mice and hamsters were also analyzed by compartmental modeling using Phoenix WinNonlin (version 8.2; Certara, Princeton, NJ). For each dose level, an extravascular dosing, single compartment disposition model was fit to the combined Day 1/Day 5 repeat dose plasma data. The model was parameterized with a single volume term (V/F), and with first order absorption (K01) and elimination (K10) rate constants. Initial values for the parameter estimates were obtained by fitting of the model to the Day 1 data at the lowest dose level only, and the same initial values were used across the dose range. Experimental data used in model fitting were the mean concentration-time profiles and the average dose administered to each group. The weighting scheme (1/Y2 for mouse and 1/Y for hamster) was selected based on goodness of fit of the peak region of the experimental profiles. Parameter estimates obtained through fitting were used to simulate full repeat-dose plasma concentration-time profiles with both once-daily and twice-daily (dosing at […]) administration at each dose level and treatment duration used in the efficacy studies.

[4] = hamster, plasma, po, Hamsters, 6.25 mg/kg, fitted
[5] = hamsters, 3.125 mg/kg bid, 5 days, simulated
[6] = hamsters, 6.25 mg/kg bid, 5 days, simulated
[7] = hamsters, 6.25 mg/kg qd, 5 days, simulated

Cc1[nH]c2nc(N)nc(C)c2c1-c1ccc(C#N)c2c1OCO2 [DNDI-6174]
Fold-change versus WT ([1]; DDD01716002 Res 1): 32
Fold-change versus WT ([1]; DDD01716002 Res 2): 34
Fold-change versus WT ([1]; DDD01716002 Res 3): 3.5
Fold-change versus WT ([1]; DNDI-6174 Res 1): 18
Fold-change versus WT ([1]; DNDI-6174 Res 3): 62.5
Fold-change versus WT ([1]; DNDI-6174 Res 4): 112
Fold-change versus WT ([1]; DNDI-6174 Res 5): 6
efflux ratio (Caco-2 permeability): 1
blood plasma ratio at 1000 ng/mL ([2]; human): 0.8
blood plasma ratio ([2]; mouse, whole blood and plasma, intravenous, 3 mg/kg): 0.88
blood plasma ratio at 1000 ng/mL ([2]; rat): 0.93
K01 ([3]; Hamsters, 6.25 mg/kg, fitted): 0.304 h⁻¹
K10 ([3]; Hamsters, 6.25 mg/kg, fitted): 0.481 h⁻¹
V/F ([3]; Hamsters, 6.25 mg/kg, fitted): 3.20 L/kg
AUC ([3]; hamster, plasma, po, 3.125 mg/kg, hamsters, 3.125 mg/kg bid, 5 days, simulated, read-out: AUC24 ss): 4.06 µg·h/mL
AUC ([3]; hamster, plasma, po, 3.125 mg/kg, hamsters, 3.125 mg/kg bid, 5 days, simulated, read-out: Cum AUC): 20.3 µg·h/mL
Cmax ([3]; hamster, plasma, po, 6.25 mg/kg, Hamsters, fitted): 0.563 µg/mL
Cmax ([3]; hamster, plasma, po, 6.25 mg/kg, hamsters, 6.25 mg/kg bid, 5 days, simulated): 0.682 µg/mL
AUC ([3]; hamster, plasma, po, 6.25 mg/kg, hamsters, 6.25 mg/kg bid, 5 days, simulated, read-out: AUC24 ss): 8.13 µg·h/mL
AUC ([3]; hamster, plasma, po, 6.25 mg/kg, hamsters, 6.25 mg/kg bid, 5 days, simulated, read-out: Cum AUC): 40.6 µg·h/mL
Cmax ([3]; hamster, plasma, po, 6.25 mg/kg, hamsters, 6.25 mg/kg qd, 5 days, simulated): 0.563 µg/mL
AUC ([3]; hamster, plasma, po, 6.25 mg/kg, hamsters, 6.25 mg/kg qd, 5 days, simulated, read-out: AUC24 ss): 4.06 µg·h/mL
AUC ([3]; hamster, plasma, po, 6.25 mg/kg, hamsters, 6.25 mg/kg qd, 5 days, simulated, read-out: Cum AUC): 20.3 µg·h/mL
AUC(0-inf) [3, 4]: 4.07 µg·h/mL
CL/F [3, 4]: 1.54 L/h/kg
AUC24 ss (unbound) [3, 5]: 0.366 µg·h/mL
Cav ss [3, 5]: 0.169 µg/mL
Cav ss (unbound) [3, 5]: 0.015 µg/mL
Cum AUC (unbound) [3, 5]: 1.83 µg·h/mL
AUC24 ss (unbound) [3, 6]: 0.731 µg·h/mL
Cav ss [3, 6]: 0.339 µg/mL
Cav ss (unbound) [3, 6]: 0.030 µg/mL
Cmax (unbound) [3, 6]: 0.061 µg/mL
Cmin [3, 6]: 0.027 µg/mL
Cmin (unbound) [3, 6]: 0.002 µg/mL
Cum AUC (unbound) [3, 6]: 3.66 µg·h/mL
AUC24 ss (unbound) [3, 7]: 0.366 µg·h/mL
Cav ss [3, 7]: 0.169 µg/mL
Cav ss (unbound) [3, 7]: 0.015 µg/mL
Cmax (unbound) [3, 7]: 0.051 µg/mL
Cmin [3, 7]: 0.0022 µg/mL
Cmin (unbound) [3, 7]: 0.0002 µg/mL
Cum AUC (unbound) [3, 7]: 1.83 µg·h/mL

Where two headings read alike, the source gives them in different places.
